Reference: PubChem BioAssay AID904 (National Center for Advancing Translational Sciences (NCATS), 2007)
The list shows a part of the results, in another mix than the full data. Records with an inconclusive call do not appear. Active and inactive are the calls of the source. Calls follow the shape of the dose curve; as a rule, active = well fitted cell-killing curve with a large enough effect; inconclusive = small, poorly fitted or top-dose-only effect; inactive = no such curve, though single readings can be large or run the other way.

Test: qHTS Screen for Compounds that Selectively Target Cancer Cells with p53 Mutations: Cytotoxicity of p53 Null Cells at the Nonpermissive Temperature;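 also: 0% = DMSO only and -100% = full killing by 100 µM tamoxifen; nearly all actives have a fitted effect of over 50% in size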
Conditions: H1299 p53-null (neo) cells, 39C, ATPlite viability, 24 h; at 46.1 µM (top of the series)
Text: NIH Chemical Genomics Center [NCGC] NIH Molecular Libraries Screening Centers Network [MLSCN] MLSCN Grant: 1 X01 MH079844-01 Assay Submitter (PI): Dr. SUN, YI, University of Michigan NCGC Assay Overview: Synthetic Lethal Screen for Compounds to Kill Cancer Cells with p53 Mutation. Tumor suppressor gene p53 serves as a major cellular barrier against tumorigenesis. […] The goal of this screening is to identify small molecule probes that selectively kill cancer cells with mutations in p53. This screening was carried out using two lines of H1299 lung cancer cells. The H1299-p53 A138V line express a temperature sensitive p53 mutant (p53ts) in which the mutant p53 protein (A138V) is in the mutant confirmation when grown at 39C (the nonpermissive temperature) and in the wild type conformation when grown at 32C (the permissive temperature). A H1299-neo line (p53 null) grown at both 39C and 32C were used as counter-screens to filter out false positive associated with temperature shifting. The small molecular compounds that selectively target mutant p53-containing cancer cells were selected as candidate probes for further study. A cytotoxicity assay based on the measurement of ATP contents in cells was used in this screen. Concentration-responses of all the compounds in the library collection were determined in qHTS using the cell lines and temperature conditions as above.
NCGC Assay Protocol Summary: Both the H1299-p53A138V and H1299-neo cell lines were provided by Dr.Yi Sun, a PI at the University Michigan. The cells were maintained and cultured at 37C. The resuspended frozen cells were used to plate the cells in the 1536-well assay plates at a density of 600 cells per well in 5 ul medium. The assay plates with the cells were incubated at 37C for 16 to 30 hours before the experiments. The library compounds in DMSO solution were added to the cells in assay plates and incubated 24 hours at 39C (for mutant p53 conformation) or 32C (for normal p53 conformation as control). An ATP_lite assay kit (PerkinElmer) was used to determine the cell viability. Tomaxifen (100uM) was used as the positive control for cell killing. Data were normalized to the controls for basal activity (DMSO only) and 100% killing (100uM tamoxifen). AC50 values were determined from concentration-response data modeled with the standard Hill equation. P53 assay protocol: 1. Reagent; 5 uL H1299-p53A138V or H1299-neo cell cells/well 2. Time; overnight; 37C incubation 3. Compounds; 23 nL; 5.9 nM to 46 uM 4. Controls; 23 nL; Tamoxifen 100 uM 5. Time; 24 hr; 39C incubation 6. Reagent; 3 uL; ATP_Lite reagent 7. Time; 20 min; Room Temperature 8. Detection; Luminescence; Viewlux plate reader Keywords: p53, synthetic lethal, cancer, cell viability, cytotoxicity, H1299 cell line, luminescence, MLSMR, MLSCN, NIH Roadmap, qHTS, NCGC

| Compound | activity, negative = cell killing |
| --- | --- |
| Cc1cccc(C)c1OP(C)(=O)Nc1ccc(SC(F)(F)F)cc1 (centres undefined) | inactive: -0.176% |
| Cc1cc(C)cc(OP(C)(=O)Nc2ccc(SC(F)(F)F)cc2)c1 (centres undefined) | inactive: -22.5% |
| CP(=O)(Nc1ccc2c(c1)OCCO2)Oc1ccccc1 (centres undefined) | inactive: 0.0646% |
| CCN(CC)CCCOC(=O)C(O)(c1ccccc1)C1CCCCC1 (centres undefined) | inactive: 10.8% |
